Consider eight molecules from patent US20080280933A1, “BENZIMIDAZOLYL COMPOUNDS” (priority 2006, published 2008).

Protein sequences, listed by entry. Tags and fused reporters are not part of them. Residues count along the entry.
UniProt Q14416, 19-872 limits assumed: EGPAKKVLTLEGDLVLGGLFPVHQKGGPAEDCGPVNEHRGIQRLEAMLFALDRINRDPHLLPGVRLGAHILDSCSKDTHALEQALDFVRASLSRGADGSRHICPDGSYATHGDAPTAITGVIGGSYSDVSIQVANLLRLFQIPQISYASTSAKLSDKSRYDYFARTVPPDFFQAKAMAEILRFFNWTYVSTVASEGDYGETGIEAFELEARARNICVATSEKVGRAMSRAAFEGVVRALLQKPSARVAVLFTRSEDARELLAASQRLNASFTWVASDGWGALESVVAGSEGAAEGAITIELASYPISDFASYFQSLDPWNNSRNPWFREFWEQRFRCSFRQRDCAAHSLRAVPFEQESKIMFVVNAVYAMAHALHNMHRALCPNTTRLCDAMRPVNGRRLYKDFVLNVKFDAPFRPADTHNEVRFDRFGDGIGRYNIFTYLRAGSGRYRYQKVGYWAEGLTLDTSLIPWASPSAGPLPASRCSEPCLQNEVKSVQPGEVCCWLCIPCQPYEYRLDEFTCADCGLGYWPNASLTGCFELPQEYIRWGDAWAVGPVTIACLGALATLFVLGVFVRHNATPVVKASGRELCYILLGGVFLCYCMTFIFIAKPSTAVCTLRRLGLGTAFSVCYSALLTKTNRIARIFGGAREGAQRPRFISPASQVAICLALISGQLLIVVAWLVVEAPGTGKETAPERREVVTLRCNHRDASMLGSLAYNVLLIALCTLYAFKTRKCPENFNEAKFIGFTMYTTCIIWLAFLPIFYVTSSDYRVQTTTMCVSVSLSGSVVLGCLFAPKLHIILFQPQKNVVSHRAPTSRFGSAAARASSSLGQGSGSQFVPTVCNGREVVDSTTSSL

Some results are limits rather than exact numbers.

The first assay deals with mGluR2 receptor (metabotropic glutamate receptor 2) (Homo sapiens, UniProt Q14416). Description: mGluR2 Potentiator Screen, FLIPR, EC10-EC20 glutamate challenge.
Conditions: not given
How it is done:
Procedure for mGluR2 Potentiator Screen NLB Methods EC10-EC20 Challenge Cell Culture and Plating:
Cells used for this screen are HEK cells stably transfected with the mGluR2 receptor (metabotropic glutamate receptor 2) and the Gα15 G protein. Clones were identified by functional activity (FLIPR). Cells are grown in growth media containing: DMEM High Glucose with Glutamine and Na Pyruvate (GIBCO), 10% (v/v) Heat inactivate FBS (GIBCO) G418 500 ug/ml (from 50 mg/ml stock) (GIBCO) and Blasticidin 3 ug/ml (from 5 mg/ml stock made in H2O) (Invitrogen).
2 days before the assay cell are trypsinized with 0.25% trysin/EDTA (GIBCO), spun down at 1000 rpm for 5 minutes, resuspended in growth media and plated on polystyrene 384 well black wall/clear bottom poly-D-lysine coated plates at a density of approximately 18,000 cells/well in a volume of 50 μL per well. One day before the assay the growth media is removed from the plates by flicking and replaced with media containing DMEM High Glucose without Glutamine and Na Pyruvate (GIBCO) and 10% (v/v) dialyzed FBS (GIBCO). The reason for the removal of glutamine the day before the assay is to minimize the amount of glutamate that will be present during the assay, as endogenous glutarnate released from the cells can reduce the fluorescent response and interfere with the FLIPR screen.
FLIPR Methods and Data Analysis:
On the day of the assay, the FLIPR assay is performed using the following methods:
The pH is adjusted to 7.4 with 1M NaOH. Prepare a 2 mM (approx.) stock solution of Fluo-4.am (Molecular Probes) dye in DMSO −22 μl DMSO per 50 ug vial (440 μL per 1 mg vial). Make a 1 mM (approx.) flou-4, PA working solution per vial by adding 22 μl of 20% pluronic acid (PA) (Molecular Probes) in DMSO to each 50 ug vial (440 μL per 1 mg vial). Prepare a 250 mM Probenecid (Sigma) stock solution by dissolving 0.71 g into 5 ml 1N NaOH and 5 ml assay buffer (for each liter of assay wash buffer). Make 4 uM (approx.) dye incubation media by adding 2.50 ug vials per 11 ml DMEM high glucose without glutamine (220 ml per 1 mg vial). Add 110 μL probenecid stock per 11 ml (2.5 mM final [concentration]). To the dye media add 3 units/ml of glutamic-pyruvic transaminase (GPT, Sigma) and 3 mM Na Pyruvate. The assay has worked with dye concentrations from 2 uM to 8 uM dye as well. To the assay buffer from drug preparation, add 1.83 mls DMSO and 400 μL. 15.8% P104 (from New Leads biology) per liter for final concentrations of 0.18% DMSO and 0.006% P104. To the assay buffer for cell washing, add probenecid in the same manner and concentration that was used for the dye media.
Remove growth media from cell plates by flicking. Add 50 μl/well dye solution. Incubate 1 hour at 37° C. and 5% CO2. Remove dye solution and wash 3 times with assay buffer+probenecid (100 μl probenecid stock per 10 ml buffer), leaving 30 μL/well assay buffer. Wait at least 10-15 minutes. Compounds and agonist challenge additions are performed with the FLIPR. The in addition is for test compounds, which are added as 15 μL of 4× [concentration] of potentiator. The second 2nd addition is 15 μL of 4× [concentration] of agonist or challenge. This achieves 1× concentration of all compounds only after 2nd addition. The 1st and 2nd additions are performed separately using the FLIPR, which give 2 different data files. Compounds are pretreated at least 30 minutes before agonist addition.
Results are analyzed by dividing the peak fluorescent value of the FLIPR response by the […] to achieve a ratio response. The ratios are then analyzed by curve fitting programs. Since potent compounds can give an inverted U dose response curve (due to effects on endogenous glutamate by the potentiators) points are deleted at concentrations higher than the concentration that gives the maximum effect. Maximum values for dose response curves (forced fitting) are derived from standards on the plate.
Compound Preparation and Glutamate Challenge: […]
For `Cn1c(CN2CCC3(c4ccc(F)cc4)CC3C2)nc2ccccc21` (centres unmarked), the EC50 came to 106 nM. Same read-out and setting: the value for `CC(=O)OCC(=O)N1CC2(CCN(Cc3nc4ccccc4n3C)CC2)c2cc(Cl)ccc21` was over 4430 nM; that for `COc1ccc2c(c1)CCCC21CCN(Cc2nc3ccccc3n2C)CC1` was 2680 nM; that for `Cc1cccc(C2CCN(Cc3nc4ccccc4n3C)CC2)c1` was 51.5 nM.

Regarding `Cc1ccccc1C1(F)CCN(Cc2nc3ccccc3n2C)CC1`, the EC50 amounted to 252 nM. For `CC(=O)OC(C)(C)C(=O)N1CC2(CCN(Cc3nc4ccccc4n3C)CC2)c2cc(Cl)ccc21`, the EC50 was 3410 nM.

Staying with this assay, now noted: mGluR2 potentiator screen, Table 7.
For `CCCOc1ccc(Cl)cc1C1CCN(Cc2nc3ccccc3n2C2CC2)CC1`, the EC50 is 731 nM. The same measure, in the same setting: the result for `C#CCOc1ccccc1C1CCN(Cc2nc3c(Br)cccc3n2C)CC1` reads 7700 nM.
